Binding of CDR-mutated scFvs to a peptide of the spike HR2 region

Data: MIT Lincoln Laboratory AlphaSeq set, Engelhart et al. 2022, doi:10.1038/s41597-022-01779-4, as distributed in FLAb.

Binding partner: SARS-CoV-2 spike HR2 peptide, sequence PDVDLGDISGINAS.

Parent: Ab-91, a human scFv built as VL, the linker GGGGSGGGGSGGGGS, VH. Only the CDRs of the heavy chain vary.
VL: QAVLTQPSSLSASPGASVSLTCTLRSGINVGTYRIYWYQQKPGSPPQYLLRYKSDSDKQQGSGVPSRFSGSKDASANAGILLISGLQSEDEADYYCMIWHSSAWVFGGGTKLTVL
VH: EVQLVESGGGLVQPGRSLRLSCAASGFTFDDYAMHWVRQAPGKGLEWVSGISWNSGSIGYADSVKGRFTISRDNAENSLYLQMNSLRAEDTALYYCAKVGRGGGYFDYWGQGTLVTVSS

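The parent was found by panning a naive human phage display library on the peptide. Library AAYL51 holds single substitutions and randomly drawn double and triple substitutions in the CDRs. In AlphaSeq, yeast of one mating type display the scFv and yeast of the other type display the target. The frequency of each diploid, read from paired DNA barcodes, reflects how well the two displayed proteins bind. Each replicate has its own calibration line, from reference interactions of the BCL2 family. The assay was run in three technical replicates.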

Changes read parent residue, position, new residue, counted from the first residue of the VH shown.
Every variant below is changed at R101 of the VH (sequential numbering).
The Kd shown is the geometric mean over detected replicates; a lower Kd is a better binder.
A pair that was not seen in any replicate is written "no signal"; this usually means weak binding, but a binder can also be missed.
The list is sorted by this average, lowest first, undetected variants last.

| changes | apparent Kd | detected | control signals |
|---|---|---|---|
| D30A+A33S+R101P | 7.2 nM | 3/3 | 3/9 |
| V99I+R101I+F106L | 15 nM | 3/3 | 4/9 |
| D31K+A33P+R101W | 18 nM | 3/3 | 0/9 |
| G56E+R101G+D107S | 30 nM | 3/3 | 2/9 |
| D31A+S63H+R101S | 80 nM | 3/3 | 3/9 |
| K65A+R101G | 110 nM | 3/3 | 1/9 |
| A33S+S55K+R101E | 140 nM | 1/3 | 0/9 |
| S57D+K65R+R101G | 160 nM | 3/3 | 1/9 |
| Y32W+G100Y+R101L | 630 nM | 3/3 | 0/9 |
| D31F+S55H+R101T | 840 nM | 1/3 | 0/9 |
| Y32T+R101D+Y105K | 1.2 µM | 1/3 | 0/9 |
| G50K+V64K+R101K | 1.8 µM | 1/3 | 0/9 |
| Y60I+R101Y | 2.7 µM | 2/3 | 4/9 |
| D62W+R101G | 3.6 µM | 1/3 | 1/9 |
| I51H+R101S+D107F | 3.7 µM | 1/3 | 1/9 |
| Y60D+K65E+R101M | 3.9 µM | 1/3 | 1/9 |
| N54M+R101L | 4.4 µM | 1/3 | 3/9 |
| T28K+A61P+R101T | 7.4 µM | 3/3 | 4/9 |
| A61G+G100Q+R101I | 11 µM | 1/3 | 1/9 |
| F29G+G59Q+R101A | 11 µM | 2/3 | 1/9 |
| K65A+R101A+G103M | 15 µM | 2/3 | 5/9 |
| Y60N+V99P+R101G | 16 µM | 1/3 | 0/9 |
| I51P+R101G | 17 µM | 1/3 | 0/9 |
| F29C+R101E+G102Y | 18 µM | 2/3 | 3/9 |
| A61P+V99Y+R101G | 23 µM | 1/3 | 1/9 |
| T28Q+G59W+R101E | 30 µM | 1/3 | 2/9 |
| I58P+V64C+R101C | 36 µM | 1/3 | 4/9 |
| G50A+R101S+D107Q | 47 µM | 1/3 | 1/9 |
| G50T+R101M+G104R | 54 µM | 1/3 | 0/9 |
| I51K+R101P | 62 µM | 2/3 | 8/9 |
| A33Q+S52R+R101H | 82 µM | 3/3 | 6/9 |
| M34V+R101N+G102P | 120 µM | 2/3 | 4/9 |
| S57L+R101S+G102L | 130 µM | 2/3 | 5/9 |
| N54I+K65T+R101N | 140 µM | 3/3 | 5/9 |
| G59T+R101L+Y105D | 240 µM | 1/3 | 3/9 |
| F27A+A61V+R101L | 270 µM | 2/3 | 4/9 |
| D30R+S55W+R101I | 270 µM | 1/3 | 2/9 |
| T28F+S63K+R101D | 280 µM | 1/3 | 3/9 |
| I58Y+D62S+R101L | 380 µM | 1/3 | 4/9 |
| H35R+N54F+R101M | 600 µM | 3/3 | 3/9 |
| S55E+G59P+R101V | 650 µM | 2/3 | 6/9 |
| F27C+R101F+D107S | 950 µM | 1/3 | 2/9 |
| N54K+V99W+R101N | 1.6 mM | 1/3 | 2/9 |
| F27N+D30A+R101P | no signal | 0/3 | 4/9 |
| F29R+K65I+R101Y | no signal | 0/3 | 1/9 |
| I58V+R101I+G103E | no signal | 0/3 | 0/9 |
| S57H+V64K+R101S | no signal | 0/3 | 0/9 |
| G59N+R101M+G104Q | no signal | 0/3 | 2/9 |
| M34N+Y60N+R101L | no signal | 0/3 | 2/9 |
| G50I+R101C | no signal | 0/3 | 0/9 |
| G26T+D62W+R101P | no signal | 0/3 | 0/9 |
| D31Q+R101V+Y108M | no signal | 0/3 | 0/9 |
| I51Y+R101L | no signal | 0/3 | 0/9 |
| M34L+W53L+R101Y | no signal | 0/3 | 2/9 |
| A33P+S52Y+R101Y | no signal | 0/3 | 0/9 |
| A61K+R101L+Y108N | no signal | 0/3 | 0/9 |
| G26N+K65I+R101N | no signal | 0/3 | 0/9 |
| F27P+R101C | no signal | 0/3 | 0/9 |
| G26V+D31W+R101T | no signal | 0/3 | 1/9 |
| R101E | no signal | 0/3 | 4/9 |
| Y60G+V64S+R101N | no signal | 0/3 | 0/9 |
| S52F+K65V+R101W | no signal | 0/3 | 0/9 |
| Y32N+A33M+R101G | no signal | 0/3 | 1/9 |
| D31N+M34H+R101C | no signal | 0/3 | 0/9 |
| R101Y+G104T+F106T | no signal | 0/3 | 0/9 |
| D30E+K65S+R101A | no signal | 0/3 | 1/9 |

11 of these entries, quoted again:

changes	apparent Kd	detected	control signals
T28Q+G59W+R101E	30 µM	1/3	2/9
F29C+R101E+G102Y	18 µM	2/3	3/9
Y60G+V64S+R101N	no signal	0/3	0/9
F27A+A61V+R101L	270 µM	2/3	4/9
D31K+A33P+R101W	18 nM	3/3	0/9
I58P+V64C+R101C	36 µM	1/3	4/9
G50K+V64K+R101K	1.8 µM	1/3	0/9
G59T+R101L+Y105D	240 µM	1/3	3/9
G50T+R101M+G104R	54 µM	1/3	0/9
S57H+V64K+R101S	no signal	0/3	0/9
G56E+R101G+D107S	30 nM	3/3	2/9

Three control strains display no target. For library AAYL51, 21% of the pairings with them gave a signal, with a median of 34 µM and one signal in twenty below 1.8 µM, so weak values seen in few replicates may be background. For each scFv, signals with the empty controls are counted beside the result.